Molecular target: α-glucosidase from Saccharomyces cerevisiae (Saccharomyces cerevisiae, UniProt P53341)
Assay: α-Glucosidase assay
Type: biochemical
Details: read-out: Inhibition at 0.02 mM (%) α-Glucosidase

Protein sequences, listed by entry. Tags and fused reporters are not part of them. Lines headed by an entry give the natural chain unless they say otherwise; changes in a name come on top.
UniProt P53341: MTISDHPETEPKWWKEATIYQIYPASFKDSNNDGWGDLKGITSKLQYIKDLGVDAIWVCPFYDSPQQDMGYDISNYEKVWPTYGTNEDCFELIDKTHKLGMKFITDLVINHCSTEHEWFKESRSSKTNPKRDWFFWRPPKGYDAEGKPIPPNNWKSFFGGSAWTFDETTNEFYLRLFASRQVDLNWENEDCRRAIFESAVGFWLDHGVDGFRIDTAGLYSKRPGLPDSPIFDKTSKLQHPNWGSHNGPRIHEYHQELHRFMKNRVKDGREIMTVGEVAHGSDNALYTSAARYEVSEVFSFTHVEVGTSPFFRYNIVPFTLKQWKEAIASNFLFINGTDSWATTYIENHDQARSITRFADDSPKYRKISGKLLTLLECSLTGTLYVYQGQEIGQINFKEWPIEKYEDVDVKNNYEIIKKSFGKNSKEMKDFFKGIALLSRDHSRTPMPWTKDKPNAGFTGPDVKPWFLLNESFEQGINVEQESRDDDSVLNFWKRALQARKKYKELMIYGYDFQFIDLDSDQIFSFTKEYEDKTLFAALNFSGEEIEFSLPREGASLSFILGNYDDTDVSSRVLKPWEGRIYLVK

inhibition at 20 µM: 71.3 ± 1.1%
SMILES: C[C@H]1O[C@H](O[C@H]2[C@H](O)[C@@H](O)[C@@H](O[C@H]3[C@H](O)[C@@H](O)C(O)O[C@@H]3CO)O[C@@H]2CO)[C@H](O)[C@@H](O)[C@@H]1N[C@H]1C=C(CO)[C@@H](O)[C@H](O)[C@H]1O (stereo partly shown) [Acarbose, acarbose, reference compound]
